The values below are quoted from earlier work in patent US12172969B2, “Deuterated secnidazole for use in the treatment of bacterial vaginosis and methods and uses thereof” (EVOFEM BIOSCIENCES, INC., priority 2018, dated 2024).

For this series the following is noted: cited from earlier work.

Take `Cc1ncc([N+](=O)[O-])n1CC(C)O` (stereo not shown) [secnidazole, 1-(2-methyl-5-nitro-1H-imidazol-1-yl) propan-2-ol]: the “absorption after oral administration” value was “rapidly and completely absorbed”.
